Measured values published in US20240000961A1, “ANTIBODY-BASED CONJUGATE FOR ENHANCING THERAPEUTIC EFFECT OF TARGETED THERAPEUTIC AGENT” (THE CATHOLIC UNIVERSITY OF KOREA INDUSTRY-ACADEMIC …, priority 2020, published 2024).

Settings: nude mice, intravenous

## avelumab-maleimide-Pluronic F68-chlorin e6 [AVE-Mal-PF68-Ce6]
1.78 mg/kg based on chlorin e6, imaged for 144 hours
  fluorescence in the body compared to avelumab-maleimide-polyethylene glycol 2k-chlorin e6 and avelumab-chlorin e6 injection groups: stronger fluorescence could be confirmed for a significantly longer time
At 144 hours
  fluorescence relative to avelumab-chlorin e6 or avelumab-maleimide-polyethylene glycol 2k-chlorin e6 injection group: about 2.7 times
